How the values were obtained:
[1] = biological target: Matrix metalloproteinase-9 (Homo sapiens, UniProt P14780); assay: Inhibition of MMP9
[2] = biological target: Matrix metalloproteinase-14 (Homo sapiens, UniProt P50281); assay: Inhibition of MMP14

| Compound | IC50 [1] [µM] | IC50 [2] [µM] |
| --- | --- | --- |
| COc1ccc(N2CCN(c3ccc(S(=O)(=O)C4(C(=O)NO)CCOCC4)cc3)CC2)cc1 | 0.722 | > 10 |
| O=C(NO)C1(S(=O)(=O)c2ccc(N3CCN(c4ccccc4)CC3)cc2)CCOCC1 | 0.45 | > 10 |
| COc1ccccc1C1CCN(c2ccc(S(=O)(=O)C3(C(=O)NO)CCOCC3)cc2)CC1 | 6.7 | > 10 |
| O=C(NO)C1(S(=O)(=O)c2ccc(N3CCC(c4ccccc4)CC3)cc2)CCOCC1 | 0.265 | > 10 |
| O=C(NO)C1(S(=O)(=O)c2ccc(N3CCN(c4ccccc4Cl)CC3)cc2)CCOCC1 | 2.09 | > 10 |
| O=C(NO)C1(S(=O)(=O)c2ccc(N3CCN(c4ccc(C(F)(F)F)cc4)CC3)cc2)CCN(C2CC2)CC1 | > 10 | > 10 |
| COc1ccc(C2CCN(c3ccc(S(=O)(=O)C4(C(=O)NO)CCOCC4)cc3)CC2)c(OC)c1 | > 10 | > 10 |
| Cc1ccccc1N1CCN(c2ccc(S(=O)(=O)C3(C(=O)NO)CCOCC3)cc2)CC1 | 2.86 | > 10 |
| Cc1ccc(N2CCN(c3ccc(S(=O)(=O)C4(C(=O)NO)CCOCC4)cc3)CC2)cc1 | 0.682 | 8.22 |
| COc1ccc(C2CCN(c3ccc(S(=O)(=O)C4(C(=O)NO)CCOCC4)cc3)CC2)c(C)c1 | > 10 | > 10 |
| COc1ccc(N2CCN(c3ccc(S(=O)(=O)C4(C(=O)NO)CCN(C5CC5)CC4)cc3)CC2)cc1 | 0.729 | > 10 |
| O=C(NO)C1(S(=O)(=O)c2ccc(N3CCN(c4ccc(Cl)cc4)CC3)cc2)CCOCC1 | 0.27 | 5 |
| O=C(NO)C1(S(=O)(=O)c2ccc(N3CCC(c4ccc(Cl)cc4)CC3)cc2)CCOCC1 | 0.35 | > 10 |
| COc1cccc(N2CCN(c3ccc(S(=O)(=O)C4(C(=O)NO)CCOCC4)cc3)CC2)c1 | 0.163 | 2.86 |
| O=C(NO)C1(S(=O)(=O)c2ccc(N3CCN(c4ccccc4F)CC3)cc2)CCOCC1 | 0.356 | > 10 |
| O=C(NO)C1(S(=O)(=O)c2ccc(N3CCC(c4cccc5ccccc45)CC3)cc2)CCOCC1 | 2.5 | > 10 |
| O=C(NO)C1(S(=O)(=O)c2ccc(N3CCC(c4ccccc4O)CC3)cc2)CCOCC1 | > 10 | > 10 |
| C#CCN1CCC(C(=O)NO)(S(=O)(=O)c2ccc(Sc3ccccc3)cc2)CC1 | – | 0.019 |
| O=C(NO)C1(S(=O)(=O)c2ccc(N3CCN(c4ccc(C(F)(F)F)cc4)CC3)cc2)CCOCC1 | 5 | > 10 |
